Ab-91 heavy chain CDR variants: yeast mating affinities

Values reported by Engelhart et al. 2022, doi:10.1038/s41597-022-01779-4 (FLAb copy).

Target peptide (SARS-CoV-2 spike, HR2 region): PDVDLGDISGINAS

Parent: Ab-91, a human scFv built as VL, a (GGGGS)3 linker, VH. Only the CDRs of the heavy chain vary.
VL: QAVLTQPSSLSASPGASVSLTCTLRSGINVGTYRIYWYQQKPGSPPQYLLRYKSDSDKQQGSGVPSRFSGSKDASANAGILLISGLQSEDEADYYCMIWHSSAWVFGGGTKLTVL
VH: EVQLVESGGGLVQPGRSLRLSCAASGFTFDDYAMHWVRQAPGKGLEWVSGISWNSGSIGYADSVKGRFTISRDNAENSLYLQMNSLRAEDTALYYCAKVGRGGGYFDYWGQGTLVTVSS

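The starting antibody came from a phage panning campaign against this peptide. The library (AAYL51) carries one to three amino acid substitutions per variant, with no insertions or deletions. AlphaSeq pools MATa yeast showing the antibodies with MATalpha yeast showing the peptide. Pairs that bind mate more often; barcode pairs of the diploids are counted by sequencing. A regression on co-assayed BCL2-family reference pairs converts the normalised counts of each replicate to an apparent Kd. The assay was run in three technical replicates.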

Changes read parent residue, position, new residue, counted from the first residue of the VH shown.
Values are log10 of the apparent Kd in nM; lower means stronger binding.
A mean of the replicates is given; it leaves out those without a signal.
"ND" marks a missing value. The strain was present, yet no cells mated with the target were sequenced in that replicate, which points to weak or no binding.
Empty control strains, which show no peptide, gave a signal in 21% of pairings with library AAYL51; the median was 4.54 and 95% of these signals were weaker than 3.26. No background was subtracted. For each scFv, signals with the empty controls are counted beside the result, with their mean in brackets.

| # | changes | log10 Kd, replicates | mean, log10 nM | control signals |
|---|---|---|---|---|
| 1 | F29T+S55H+G100R | 4.25 5.01 5.98 | 5.08 | 7 of 9 (4.80) |
| 2 | F27N+M34F+Y105P | 5.14 ND ND | 5.14 | 1 of 9 (4.10) |
| 3 | D30G+N54F+S63Y | ND 2.65 ND | 2.65 | 0 of 9 |
| 4 | S55Q+V99T+G103V | 3.88 ND ND | 3.88 | 1 of 9 (3.79) |
| 5 | F27Q+R101I+G104C | ND ND ND | ND | 0 of 9 |
| 6 | G50T+I51D+N54P | ND 6.32 ND | 6.32 | 5 of 9 (4.80) |
| 7 | Y60R+D107Y+Y108I | ND ND ND | ND | 1 of 9 (3.11) |
| 8 | I51Q+D107A+Y108T | 5.37 ND ND | 5.37 | 4 of 9 (5.17) |
| 9 | A33Y+S52I+N54M | 5.15 5.78 ND | 5.46 | 7 of 9 (4.93) |
| 10 | S52M+S55G+G56T | ND ND ND | ND | 0 of 9 |
| 11 | M34D+G100H+D107A | 3.97 ND ND | 3.97 | 2 of 9 (3.86) |
| 12 | S52L+G59F | ND ND ND | ND | 2 of 9 (4.74) |
| 13 | W53N+G56R+K65I | ND 3.89 ND | 3.89 | 0 of 9 |
| 14 | F27G+G56C+G102M | ND 5.07 ND | 5.07 | 2 of 9 (2.95) |
| 15 | F29E+Y32S+R101V | 4.40 5.30 4.91 | 4.87 | 6 of 9 (4.77) |
| 16 | F27Y+D62S+K65C | ND ND ND | ND | 1 of 9 (2.50) |
| 17 | S52K+S55D+G102A | ND ND ND | ND | 4 of 9 (4.94) |
| 18 | S55V+S57A | ND ND ND | ND | 1 of 9 (4.30) |
| 19 | D62Y+G102P+G103D | 3.93 ND ND | 3.93 | 2 of 9 (4.08) |
| 20 | G59W+K65T+Y105D | 3.96 4.51 4.66 | 4.38 | 4 of 9 (4.60) |
| 21 | S55G+S57V+D62L | ND ND ND | ND | 0 of 9 |
| 22 | S55Q | 1.48 1.75 1.36 | 1.53 | 0 of 9 |
| 23 | G26N+I58N+G59N | ND 4.65 ND | 4.65 | 1 of 9 (5.81) |
| 24 | I51H+A61N+V64T | ND ND ND | ND | 1 of 9 (5.09) |
| 25 | M34I+N54V+G100C | ND ND ND | ND | 1 of 9 (4.21) |
| 26 | G26T+N54F+G56W | ND ND ND | ND | 1 of 9 (3.31) |
| 27 | N54D+K65D+D107G | 5.17 4.92 4.49 | 4.86 | 5 of 9 (5.04) |
| 28 | G100K+Y108M | 4.71 4.66 ND | 4.69 | 3 of 9 (4.39) |
| 29 | G50T+S63H+R101F | ND ND ND | ND | 0 of 9 |
| 30 | M34S+G56M+Y108S | 4.62 6.47 ND | 5.54 | 4 of 9 (4.92) |
| 31 | S52E+S63I+G100Y | 4.53 ND ND | 4.53 | 0 of 9 |
| 32 | F29E+S52V+N54P | 5.29 5.72 ND | 5.51 | 3 of 9 (5.13) |
| 33 | G50Y+W53G+G59T | ND ND ND | ND | 1 of 9 (2.62) |
| 34 | F29D+V64C+Y105H | ND 4.92 ND | 4.92 | 1 of 9 (4.39) |
| 35 | S57P+G100V+Y105A | ND ND 3.00 | 3.00 | 1 of 9 (4.30) |
| 36 | M34T+N54L+K65H | ND 5.79 5.31 | 5.55 | 1 of 9 (5.09) |
| 37 | D30Y+H35K+G103S | ND ND ND | ND | 0 of 9 |
| 38 | A33M+H35L+W53Q | 3.05 3.23 ND | 3.14 | 3 of 9 (3.32) |
| 39 | V64K+K65C+G100W | ND ND ND | ND | 1 of 9 (3.81) |
| 40 | Y60W+S63D+Y108W | 4.97 ND ND | 4.97 | 0 of 9 |

The opening 6 entries, copied out:

changes,"log10 Kd, replicates","mean, log10 nM",control signals
F29T+S55H+G100R,4.25 5.01 5.98,5.08,7 of 9 (4.80)
F27N+M34F+Y105P,5.14 ND ND,5.14,1 of 9 (4.10)
D30G+N54F+S63Y,ND 2.65 ND,2.65,0 of 9
S55Q+V99T+G103V,3.88 ND ND,3.88,1 of 9 (3.79)
F27Q+R101I+G104C,ND ND ND,ND,0 of 9
G50T+I51D+N54P,ND 6.32 ND,6.32,5 of 9 (4.80)